Values quoted from earlier work, collected in paper PMC4139653.

The chains behind the UniProt entries cited, without tags or fusion partners. Residues count along the entry.
UniProt P31994, 43-217: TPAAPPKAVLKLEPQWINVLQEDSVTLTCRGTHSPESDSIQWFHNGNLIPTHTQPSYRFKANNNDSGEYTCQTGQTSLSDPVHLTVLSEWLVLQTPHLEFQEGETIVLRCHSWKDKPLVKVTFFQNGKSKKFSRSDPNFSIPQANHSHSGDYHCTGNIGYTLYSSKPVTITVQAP

Molecular target: FcγRIIb (Homo sapiens) (UniProt P31994)

Kd: 56.7 nM
Substance: Amyloid beta (from UniProt P05067)
